Laboratory results from US7632933B2, “Corticotropin releasing factor 2 receptor agonists” (priority 2002, dated 2009).

Experiments:
CRF2R = molecular target: T1, CRF2R (Homo sapiens, UniProt Q13324); experiment: CRF2R agonist activity (EC50 and Emax), called comparative CRF binding; format: cell-based; conditions: CRF2R EC50 (nM), CRF2R
T1 sequence (Q13324 1-411): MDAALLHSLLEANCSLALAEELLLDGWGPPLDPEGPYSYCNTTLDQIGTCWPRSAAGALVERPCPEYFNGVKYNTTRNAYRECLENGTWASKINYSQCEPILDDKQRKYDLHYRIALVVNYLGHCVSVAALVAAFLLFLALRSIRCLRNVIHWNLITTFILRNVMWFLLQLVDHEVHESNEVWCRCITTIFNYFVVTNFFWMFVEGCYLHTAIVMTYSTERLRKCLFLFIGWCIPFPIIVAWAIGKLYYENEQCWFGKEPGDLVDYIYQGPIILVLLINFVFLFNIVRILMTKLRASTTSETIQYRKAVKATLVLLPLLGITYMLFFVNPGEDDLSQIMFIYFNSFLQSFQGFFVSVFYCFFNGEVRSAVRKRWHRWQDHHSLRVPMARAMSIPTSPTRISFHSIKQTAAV
Method in brief: (§1)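 Agonism measured through CRE-linked reporter expression or lysate cAMP after peptide treatment of CRF1R- or CRF2R-expressing cells, compared against vehicle-treated cells; background from a co-expressed non-target CRFR is subtracted.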

CRF1R = molecular target: T2, CRF1R (Homo sapiens, UniProt P34998); experiment: CRF1R agonist activity (EC50 and Emax), called comparative CRF binding; format: cell-based; conditions: CRF1R EC50 (nM), CRF1R
T2 sequence (P34998 24-415): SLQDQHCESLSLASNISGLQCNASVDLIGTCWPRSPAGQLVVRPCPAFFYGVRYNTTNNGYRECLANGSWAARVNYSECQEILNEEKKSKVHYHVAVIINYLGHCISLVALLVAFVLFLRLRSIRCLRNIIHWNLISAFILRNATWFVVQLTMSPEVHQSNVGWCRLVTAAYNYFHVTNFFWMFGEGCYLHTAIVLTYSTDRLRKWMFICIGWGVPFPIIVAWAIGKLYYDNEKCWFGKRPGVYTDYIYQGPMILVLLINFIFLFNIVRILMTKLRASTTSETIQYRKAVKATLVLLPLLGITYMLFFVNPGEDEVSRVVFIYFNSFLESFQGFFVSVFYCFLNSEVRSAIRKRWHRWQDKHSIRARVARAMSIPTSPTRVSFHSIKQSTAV
Method in brief: as §1

| Compound | EC50 (CRF2R) | EC50 (CRF1R) |
| --- | --- | --- |
| CC[C@H](C)[C@H](NC(=O)[C@@H](NC(=O)[C@H](CC(=O)O)NC(=O)[C@H](CC(C)C)NC(=O)[C@H](CC(C)C)NC(=O)[C@H](CC(C)C)NC(=O)[C@H](CCCNC(=N)N)NC(=O)[C@H](CC(N)=O)NC(=O)[C@H](CC(N)=O)NC(=O)[C@H](C)NC(=O)[C@H](C)NC(=O)[C@H](CCC(N)=O)NC(=O)[C@H](CCC(N)=O)NC(=O)[C@H](CCCCN)NC(=O)[C@H](CCC(=O)O)NC(=O)[C@H](CCCCN)NC(=O)[C@H](CCC(=O)O)NC(=O)[C@H](CCC(N)=O)NC(=O)[C@H](CCCCN)NC(=O)[C@H](CCC(=O)O)NC(=O)[C@@H](NC(=O)[C@H](CCC(=O)O)NC(=O)[C@@H](NC(=O)[C@H](CCSC)NC(=O)[C@H](CCCCN)NC(=O)[C@H](CCCNC(=N)N)NC(=O)[C@H](CC(C)C)NC(=O)[C@H](CC(C)C)NC(=O)[C@H](Cc1ccc(O)cc1)NC(=O)[C@H](CCC(N)=O)NC(=O)[C@@H]1CCCN1C(=O)[C@H](CC(C)C)NC(=O)[C@H](CC(=O)O)NC(=O)[C@@H](NC(=O)[C@H](CO)NC(=O)[C@@H](NC(=O)[C@@H]1CCCN1C(=O)[C@@H]1CCCN1C(=O)CNC(=O)[C@@H]1CCC(=O)N1)[C@@H](C)CC)[C@@H](C)CC)[C@@H](C)CC)[C@@H](C)CC)[C@@H](C)O)C(N)=O [compound 27] | 10.7 nM | 325 nM |
| CC[C@H](C)[C@H](NC(=O)[C@@H](NC(=O)[C@H](CC(=O)O)NC(=O)[C@H](CC(C)C)NC(=O)[C@H](CC(C)C)NC(=O)[C@H](CC(C)C)NC(=O)[C@H](CCCNC(=N)N)NC(=O)[C@H](CC(N)=O)NC(=O)[C@H](CC(N)=O)NC(=O)[C@H](C)NC(=O)[C@H](C)NC(=O)[C@H](CCC(N)=O)NC(=O)[C@H](CCC(N)=O)NC(=O)[C@H](CCCCN)NC(=O)[C@H](CCC(=O)O)NC(=O)[C@H](CCCCN)NC(=O)[C@H](CCC(=O)O)NC(=O)[C@H](CCC(N)=O)NC(=O)[C@H](CCCCN)NC(=O)[C@H](CCC(=O)O)NC(=O)[C@@H](NC(=O)[C@H](CCC(=O)O)NC(=O)[C@@H](NC(=O)[C@H](CCSC)NC(=O)[C@H](CCCCN)NC(=O)[C@H](CCCNC(=N)N)NC(=O)[C@H](CC(C)C)NC(=O)[C@H](CC(C)C)NC(=O)[C@H](CCC(N)=O)NC(=O)[C@H](Cc1c[nH]cn1)NC(=O)[C@@H]1CCCN1C(=O)[C@H](CC(C)C)NC(=O)[C@H](CC(=O)O)NC(=O)[C@@H](NC(=O)[C@H](CO)NC(=O)[C@@H](NC(=O)[C@@H]1CCCN1C(=O)[C@@H]1CCCN1C(=O)CNC(=O)[C@@H]1CCC(=O)N1)[C@@H](C)CC)[C@@H](C)CC)[C@@H](C)CC)[C@@H](C)CC)[C@@H](C)O)C(N)=O [compound 212] | 21.3 nM | 445 nM |
| CC[C@H](C)[C@H](NC(=O)[C@@H](NC(=O)[C@H](CC(=O)O)NC(=O)[C@H](CC(C)C)NC(=O)[C@H](CC(C)C)NC(=O)[C@H](CC(C)C)NC(=O)[C@H](CCCNC(=N)N)NC(=O)[C@H](CC(N)=O)NC(=O)[C@H](CC(N)=O)NC(=O)[C@H](C)NC(=O)[C@H](C)NC(=O)[C@H](CCC(N)=O)NC(=O)[C@H](CCC(N)=O)NC(=O)[C@H](CCCCN)NC(=O)[C@H](CCC(=O)O)NC(=O)[C@H](CCCCN)NC(=O)[C@H](CCC(=O)O)NC(=O)[C@H](CCC(N)=O)NC(=O)[C@H](CCCCN)NC(=O)[C@H](CCC(=O)O)NC(=O)[C@@H](NC(=O)[C@H](CCC(=O)O)NC(=O)[C@@H](NC(=O)[C@H](CCSC)NC(=O)[C@H](CCCCN)NC(=O)[C@H](CCCNC(=N)N)NC(=O)[C@H](CC(C)C)NC(=O)[C@H](CC(C)C)NC(=O)[C@H](CCCCN)NC(=O)[C@@H](NC(=O)[C@@H]1CCCN1C(=O)[C@H](CC(C)C)NC(=O)[C@H](CC(=O)O)NC(=O)[C@@H](NC(=O)[C@H](CO)NC(=O)[C@@H](NC(=O)[C@@H]1CCCN1C(=O)[C@@H]1CCCN1C(=O)CNC(=O)[C@@H]1CCC(=O)N1)[C@@H](C)CC)[C@@H](C)CC)[C@@H](C)O)[C@@H](C)CC)[C@@H](C)CC)[C@@H](C)O)C(N)=O [compound 45] | > 100 nM | > 1000 nM |
| CC[C@H](C)[C@H](NC(=O)[C@@H](NC(=O)[C@H](CC(=O)O)NC(=O)[C@H](CC(C)C)NC(=O)[C@H](CC(C)C)NC(=O)[C@H](CC(C)C)NC(=O)[C@H](C)NC(=O)[C@H](CC(N)=O)NC(=O)[C@H](CC(N)=O)NC(=O)[C@H](C)NC(=O)[C@H](C)NC(=O)[C@H](CCC(N)=O)NC(=O)[C@H](CCC(N)=O)NC(=O)[C@H](CCCCN)NC(=O)[C@H](CCC(=O)O)NC(=O)[C@H](CCCCN)NC(=O)[C@H](CCC(=O)O)NC(=O)[C@H](CCC(N)=O)NC(=O)[C@H](CCCCN)NC(=O)[C@H](CCC(=O)O)NC(=O)[C@@H](NC(=O)[C@H](CCC(=O)O)NC(=O)[C@@H](NC(=O)[C@H](CCSC)NC(=O)[C@H](CCCCN)NC(=O)[C@H](CCCNC(=N)N)NC(=O)[C@H](CC(C)C)NC(=O)[C@H](CC(C)C)NC(=O)[C@H](Cc1ccc(O)cc1)NC(=O)[C@H](Cc1ccccc1)NC(=O)[C@@H]1CCCN1C(=O)[C@H](CC(C)C)NC(=O)[C@H](CC(=O)O)NC(=O)[C@@H](NC(=O)[C@H](CO)NC(=O)[C@@H](NC(=O)[C@@H]1CCCN1C(=O)[C@@H]1CCCN1C(=O)CNC(=O)[C@@H]1CCC(=O)N1)[C@@H](C)CC)[C@@H](C)CC)[C@@H](C)CC)[C@@H](C)CC)[C@@H](C)O)C(N)=O [compound 230] | 8.1 nM | 219 nM |
| CC[C@H](C)[C@H](NC(=O)[C@@H](NC(=O)[C@H](CC(=O)O)NC(=O)[C@H](CC(C)C)NC(=O)[C@H](CC(C)C)NC(=O)[C@H](CC(C)C)NC(=O)[C@H](CCCNC(=N)N)NC(=O)[C@H](CC(N)=O)NC(=O)[C@H](CC(N)=O)NC(=O)[C@H](C)NC(=O)[C@H](C)NC(=O)[C@H](CCC(N)=O)NC(=O)[C@H](CCC(N)=O)NC(=O)[C@H](CCCCN)NC(=O)[C@H](CCC(=O)O)NC(=O)[C@H](CCCCN)NC(=O)[C@H](CCC(=O)O)NC(=O)[C@H](CCC(N)=O)NC(=O)[C@H](CCCCN)NC(=O)[C@H](CCC(=O)O)NC(=O)[C@@H](NC(=O)[C@H](CCC(=O)O)NC(=O)[C@@H](NC(=O)[C@H](CCSC)NC(=O)[C@H](CCCCN)NC(=O)[C@H](CCCNC(=N)N)NC(=O)[C@H](CC(C)C)NC(=O)[C@H](CC(C)C)NC(=O)[C@H](CCCCN)NC(=O)[C@@H](NC(=O)[C@@H]1CCCN1C(=O)[C@H](CC(C)C)NC(=O)[C@H](CC(=O)O)NC(=O)[C@@H](NC(=O)[C@H](CO)NC(=O)[C@@H](NC(=O)[C@@H]1CCCN1C(=O)[C@@H]1CCCN1C(=O)CNC(=O)[C@@H]1CCC(=O)N1)[C@@H](C)CC)[C@@H](C)CC)[C@@H](C)CC)[C@@H](C)CC)[C@@H](C)CC)[C@@H](C)O)C(N)=O [compound 34] | > 100 nM | > 1000 nM |
| CC[C@H](C)[C@H](NC(=O)[C@@H](NC(=O)[C@H](CC(=O)O)NC(=O)[C@H](CC(C)C)NC(=O)[C@H](CC(C)C)NC(=O)[C@H](CC(C)C)NC(=O)[C@H](CCCNC(=N)N)NC(=O)[C@H](CC(N)=O)NC(=O)[C@H](CC(N)=O)NC(=O)[C@H](C)NC(=O)[C@H](C)NC(=O)[C@H](CCC(N)=O)NC(=O)[C@H](CCC(N)=O)NC(=O)[C@H](CCCCN)NC(=O)[C@H](CCC(=O)O)NC(=O)[C@H](CCCCN)NC(=O)[C@H](CCC(=O)O)NC(=O)[C@H](CCC(N)=O)NC(=O)[C@H](CCCCN)NC(=O)[C@H](CCC(=O)O)NC(=O)[C@@H](NC(=O)[C@H](CCC(=O)O)NC(=O)[C@@H](NC(=O)[C@H](CCSC)NC(=O)[C@H](CCCCN)NC(=O)[C@H](CCCNC(=N)N)NC(=O)[C@H](CC(C)C)NC(=O)[C@H](CC(C)C)NC(=O)[C@H](Cc1ccccc1)NC(=O)[C@H](CCC(N)=O)NC(=O)[C@@H]1CCCN1C(=O)[C@H](CC(C)C)NC(=O)[C@H](CC(=O)O)NC(=O)[C@@H](NC(=O)[C@H](CO)NC(=O)[C@@H](NC(=O)[C@@H]1CCCN1C(=O)[C@@H]1CCCN1C(=O)CNC(=O)[C@@H]1CCC(=O)N1)[C@@H](C)CC)[C@@H](C)CC)[C@@H](C)CC)[C@@H](C)CC)[C@@H](C)O)C(N)=O [compound 221] | 8.5 nM | 236 nM |
